Patent publication US20260384419A1, “NOVEL CRYSTALLINE FORM OF A PYRIMIDINE COMPOUND AND PHARMACEUTICAL COMPOSITIONS COMPRISING THE SAME AND METHODS OF USE THEREOF” (published 2026)

Columns and labels:
[1] = Stability of solid form under accelerated and stress conditions; conditions: for stability of the crystalline form under accelerated condition (in words): 40 °C and relative humidity of 75%; for stability of the crystalline form under stress condition (in words): 60 °C
Description: High-performance liquid chromatography (HPLC) analysis was performed by using an Agilent 1100/1200 Series HPLC Systems (Agilent, USA) analyzer to analyze purity and contents such as a stability test, and analysis conditions were as follows. • Purity and content analysis conditions: Furopyrimidine compound of Formula 1 • Column: Hydrosphere C18 (YMC), 5 μm (150 mm×4.6 mm) • Column temperature: 30 °C. • Detector: ultraviolet absorption photometer • Detection wavelength: 254 nm • Flow velocity: 1.0 mL/min • Analysis time: 35 minutes • Eluent: NaClO4—NaH2PO4-phosphoric acid buffer solution (pH 2.5±0.1)/CH3CN=65/35 (v/v %)

[2] = Dynamic vapor sorption (DVS) hygroscopicity; conditions: for hygroscopicity in DVS: relative humidity 0% to 90%, 25 °C
Description: DVS analysis was performed by using a DVS Advantage (Surface Measurement System, United Kingdom) analyzer at 25 °C and a relative humidity of 0% to 90%, 10 mg of samples were placed in a wire mesh vapor sorption balance pan and mounted on a DVS Advantage Dynamic Vapor Sorption balance (Surface Measurement Systems, Ltd). The samples were applied to a ramping profile with relative humidity (RH) of 10% to 90% with a 10% increase of the sample while maintaining the sample in each step, until a stable weight is achieved (99.5% of weight change is completed in a step). After completion of a sorption cycle, the samples were dried in the same manner, always applying a 0% lower relative humidity after each step. Weight changes during sorption/desorption cycles (repeated 3 times) were recorded to measure hygroscopicity of the sample.

| Compound | stability of the crystalline form under accelerated condition (in words) [1] | stability of the crystalline form under stress condition (in words) [1] | moisture absorption in DVS (in words) ([2]; relative humidity 0% to 20%) | level of moisture absorption in DVS (in words) ([2]; relative humidity 30% or more) | non-hygroscopicity (in words) ([2]; summary statement) | hygroscopicity in DVS [2] |
| --- | --- | --- | --- | --- | --- | --- |
| Cc1ccc2c(-c3nc(Nc4cc(CN5C[C@@H](C)N[C@@H](C)C5)cc(C5CC5)c4)ncc3Cl)c[nH]c2c1 | sufficiently stable | sufficiently stable | occurrence of moisture absorption | very low | particularly excellent | – |
| Cc1ccc2c(-c3nc(Nc4cc(CN5C[C@@H](C)N[C@@H](C)C5)cc(C5CC5)c4)ncc3Cl)c[nH]c2c1 [Example 1] | – | – | – | – | – | about 5% |
| Cc1ccc2c(-c3nc(Nc4cc(CN5C[C@@H](C)N[C@@H](C)C5)cc(C5CC5)c4)ncc3Cl)c[nH]c2c1 [Example 3] | sufficiently stable | sufficiently stable | – | – | – | about 12% |
| Cc1ccc2c(-c3nc(Nc4cc(CN5C[C@@H](C)N[C@@H](C)C5)cc(C5CC5)c4)ncc3Cl)c[nH]c2c1 [Example 4] | sufficiently stable | sufficiently stable | – | – | – | about 0.3% |
| Cc1ccc2c(-c3nc(Nc4cc(CN5C[C@@H](C)N[C@@H](C)C5)cc(C5CC5)c4)ncc3Cl)c[nH]c2c1 [Example 5] | sufficiently stable | sufficiently stable | – | – | – | about 3.5% |
| Cc1ccc2c(-c3nc(Nc4cc(CN5C[C@@H](C)N[C@@H](C)C5)cc(C5CC5)c4)ncc3Cl)c[nH]c2c1 [Example 6] | sufficiently stable | sufficiently stable | – | – | – | about 0.5% |
